# Earlier results in patent US20230382900A1, “INHIBITORS OF BTK” (Newave Pharmaceutical Inc., priority 2020, published 2023).
# Sequences of proteins named here, by UniProt entry; tags and fusion partners are left off.
# UniProt Q06187, whole entry, species assumed: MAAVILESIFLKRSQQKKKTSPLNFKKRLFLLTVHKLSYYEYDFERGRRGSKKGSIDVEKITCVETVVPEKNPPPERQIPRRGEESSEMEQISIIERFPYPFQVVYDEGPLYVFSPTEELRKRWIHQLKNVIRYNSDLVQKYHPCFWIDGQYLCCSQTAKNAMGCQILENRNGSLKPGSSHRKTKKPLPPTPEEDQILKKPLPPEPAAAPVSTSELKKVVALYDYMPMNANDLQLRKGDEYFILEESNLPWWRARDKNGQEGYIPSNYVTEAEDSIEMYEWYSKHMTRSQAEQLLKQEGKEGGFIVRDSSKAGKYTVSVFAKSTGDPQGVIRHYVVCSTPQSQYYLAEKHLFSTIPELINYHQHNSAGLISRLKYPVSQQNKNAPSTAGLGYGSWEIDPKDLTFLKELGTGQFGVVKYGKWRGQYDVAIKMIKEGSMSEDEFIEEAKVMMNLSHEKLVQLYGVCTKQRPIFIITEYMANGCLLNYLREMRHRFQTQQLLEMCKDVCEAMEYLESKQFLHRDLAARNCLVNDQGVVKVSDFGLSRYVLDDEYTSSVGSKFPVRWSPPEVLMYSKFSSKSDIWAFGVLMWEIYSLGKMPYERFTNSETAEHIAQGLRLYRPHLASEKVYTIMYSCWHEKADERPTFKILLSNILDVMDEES
# pIC50: −log10 of the molar value.
# Biological target: Bruton's tyrosine kinase (BTK) (Homo sapiens, UniProt Q06187)
# Settings: read-out: IC50s for basophil activation, B cell receptor activation, and constitutive p-BTK activity in whole blood lysates; cited from earlier work
compound,measurement,value
C[C@H]1CN(C2COC2)CCN1c1ccc(Nc2cc(-c3ccnc(N4CCn5c(cc6c5CC(C)(C)C6)C4=O)c3CO)cn(C)c2=O)nc1 [GDC-0853],pIC50,8.05 to 8.70
